Consider one compound from patent publication EP4733310A1, “NOVEL PEPTIDE AND USE THEREOF” (Gemvax & Kael Co., Ltd., priority 2023, dated 2024).

The data set is described as follows: Pharmacokinetic profile after intravenous administration to rats. The note with it: rat, Sprague Dawley rats, plasma, sampling up to 2 hours, FIG. 2. It is filed as in vivo. How it is done: To determine the pharmacokinetic profile of GV2001 prepared in Example 1, plasma was collected from rats administered with GV2001. The collected plasma was pretreated by protein precipitation using nine times the volume of methanol containing 0.1% formic acid, followed by centrifugation at 16,100 g for 10 minutes.
GV2001 and GV1001 were administered intravenously (IV) to three Sprague Dawley rats in each group. Blood samples were collected at 0.033, 0.083, 0.17, 0.25, 0.5, 1, and 2 hours after administration. The collected blood samples were centrifuged to separate plasma, pretreated, and analyzed using LC-MS. Pharmacokinetic parameters were calculated using the non-compartmental analysis model of the Phoenix WinNonlin (Pharsight, ver. 6.4, USA) program.

SMILES strings stand for the structures.

Take `CC[C@H](C)[C@H](NC(=O)[C@H](Cc1ccccc1)NC(=O)[C@H](CCCNC(=N)N)NC(=O)[C@H](CC(C)C)NC(=O)[C@H](CCCNC(=N)N)NC(=O)[C@H](CO)NC(=O)[C@@H](NC(=O)[C@H](CC(C)C)NC(=O)[C@H](CC(C)C)NC(=O)[C@H](C)NC(=O)[C@@H]1CCCN1C(=O)[C@H](CCCNC(=N)N)NC(=O)[C@H](C)NC(=O)[C@@H](N)CCC(=O)O)[C@@H](C)O)C(=O)N1CCC[C@H]1C(=O)N[C@@H](CCCCN)C(=O)O` [GV1001, reference compound]: the AUC(0-t) came out at 0.024 µg·h/mL.
